This test addresses T1, histamine H3 receptor (Rattus norvegicus, UniProt Q9QYN8).
T1 construct: gene Hrh3
To be noted: aorta rings.

Protein sequences, listed by entry. Tags and fused reporters are not part of them. Lines headed by an entry give the natural chain unless they say otherwise; changes in a name come on top.
UniProt Q9QYN8: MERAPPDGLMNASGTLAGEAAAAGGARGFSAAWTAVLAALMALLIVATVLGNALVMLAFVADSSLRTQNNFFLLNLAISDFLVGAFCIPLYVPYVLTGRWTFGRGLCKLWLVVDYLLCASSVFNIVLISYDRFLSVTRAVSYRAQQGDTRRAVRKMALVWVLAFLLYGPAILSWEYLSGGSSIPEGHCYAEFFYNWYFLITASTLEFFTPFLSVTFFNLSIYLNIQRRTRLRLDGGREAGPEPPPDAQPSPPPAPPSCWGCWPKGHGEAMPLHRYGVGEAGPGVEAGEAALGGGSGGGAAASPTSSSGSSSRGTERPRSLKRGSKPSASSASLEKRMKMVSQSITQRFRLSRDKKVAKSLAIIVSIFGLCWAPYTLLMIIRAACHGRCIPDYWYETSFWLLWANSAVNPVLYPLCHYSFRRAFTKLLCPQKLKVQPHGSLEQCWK

Each structure is given as a SMILES string.

In turn, `S=C(NC1CCCCC1)N1CCC(c2cnc[nH]2)CC1` [thioperamide] gave a Kb of 0.617 nM.

The record behind these values is PMC2365771, “Endothelium-dependent relaxation of rat aorta to a histamine H3 agonist is reduced by inhibitors of nitric oxide synthase, guanylate cyclase and Na^+,K^+-ATPase” (Mediators of Inflammation, 1996).
